The assay deals with 14-3-3 protein zeta (14-3-3ζ) (UniProt P63104). Put plainly: not stated; KD told in the text with a pointer to Fig. 2f (a thermal stability panel); how this value was got is not told.

The chains behind the UniProt entries cited, without tags or fusion partners. Where a name states a change or a piece, a line headed by the entry shows the natural chain unless it says otherwise.
UniProt P63104: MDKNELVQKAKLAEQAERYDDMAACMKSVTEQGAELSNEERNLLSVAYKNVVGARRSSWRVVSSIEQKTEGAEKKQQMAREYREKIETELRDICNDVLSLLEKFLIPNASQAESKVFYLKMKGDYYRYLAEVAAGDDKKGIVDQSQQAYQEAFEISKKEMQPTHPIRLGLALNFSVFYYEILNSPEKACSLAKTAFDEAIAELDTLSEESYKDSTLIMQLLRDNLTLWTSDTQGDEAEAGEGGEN

Broadly, the Kd is the equilibrium constant for the complex coming apart. Higher therefore signals weaker binding.

As for “PKA-phosphorylated full-length human Tau (PKA-Tau) (from UniProt P10636-8 1-441) (natural protein)”, the Kd amounted to 1000 nM.
